Chains of the proteins cited; added tags and fusions are not shown. Residues count along the entry.
UniProt Q13224, 27-1484: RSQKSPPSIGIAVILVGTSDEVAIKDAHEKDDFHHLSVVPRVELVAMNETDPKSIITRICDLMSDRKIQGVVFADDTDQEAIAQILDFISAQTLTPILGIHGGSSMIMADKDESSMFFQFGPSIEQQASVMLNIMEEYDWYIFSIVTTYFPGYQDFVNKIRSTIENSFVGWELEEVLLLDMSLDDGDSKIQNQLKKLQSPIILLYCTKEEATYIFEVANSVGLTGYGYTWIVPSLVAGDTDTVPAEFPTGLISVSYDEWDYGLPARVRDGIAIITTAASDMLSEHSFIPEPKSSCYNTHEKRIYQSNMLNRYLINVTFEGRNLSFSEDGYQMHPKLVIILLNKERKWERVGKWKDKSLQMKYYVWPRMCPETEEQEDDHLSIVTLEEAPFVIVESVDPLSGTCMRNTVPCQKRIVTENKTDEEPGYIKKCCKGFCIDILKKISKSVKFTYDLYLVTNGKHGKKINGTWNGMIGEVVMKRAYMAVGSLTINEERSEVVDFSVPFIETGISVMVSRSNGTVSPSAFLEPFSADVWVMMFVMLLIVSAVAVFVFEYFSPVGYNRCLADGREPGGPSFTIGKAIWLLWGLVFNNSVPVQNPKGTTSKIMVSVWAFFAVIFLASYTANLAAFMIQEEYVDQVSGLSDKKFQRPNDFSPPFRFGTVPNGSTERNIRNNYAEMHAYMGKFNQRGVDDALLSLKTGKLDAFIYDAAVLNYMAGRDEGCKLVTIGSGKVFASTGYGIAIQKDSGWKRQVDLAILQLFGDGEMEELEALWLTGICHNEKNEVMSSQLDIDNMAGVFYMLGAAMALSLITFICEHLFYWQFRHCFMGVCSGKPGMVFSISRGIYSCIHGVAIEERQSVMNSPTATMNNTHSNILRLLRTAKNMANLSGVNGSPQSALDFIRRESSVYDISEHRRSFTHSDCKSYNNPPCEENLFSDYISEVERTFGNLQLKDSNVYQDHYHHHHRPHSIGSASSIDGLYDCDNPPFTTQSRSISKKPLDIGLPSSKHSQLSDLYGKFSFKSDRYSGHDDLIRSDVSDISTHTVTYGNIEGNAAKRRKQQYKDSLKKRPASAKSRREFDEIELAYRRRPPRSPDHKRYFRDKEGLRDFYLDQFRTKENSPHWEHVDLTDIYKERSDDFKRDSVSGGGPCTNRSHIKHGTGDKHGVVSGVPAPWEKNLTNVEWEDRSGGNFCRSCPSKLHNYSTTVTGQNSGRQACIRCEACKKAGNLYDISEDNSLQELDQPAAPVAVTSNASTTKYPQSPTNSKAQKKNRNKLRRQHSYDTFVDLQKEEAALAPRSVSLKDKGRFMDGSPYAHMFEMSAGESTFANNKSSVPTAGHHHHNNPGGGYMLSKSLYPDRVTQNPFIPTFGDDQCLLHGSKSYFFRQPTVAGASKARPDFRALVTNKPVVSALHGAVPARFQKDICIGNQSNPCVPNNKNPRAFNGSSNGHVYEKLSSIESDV
UniProt Q12879, 23-1464: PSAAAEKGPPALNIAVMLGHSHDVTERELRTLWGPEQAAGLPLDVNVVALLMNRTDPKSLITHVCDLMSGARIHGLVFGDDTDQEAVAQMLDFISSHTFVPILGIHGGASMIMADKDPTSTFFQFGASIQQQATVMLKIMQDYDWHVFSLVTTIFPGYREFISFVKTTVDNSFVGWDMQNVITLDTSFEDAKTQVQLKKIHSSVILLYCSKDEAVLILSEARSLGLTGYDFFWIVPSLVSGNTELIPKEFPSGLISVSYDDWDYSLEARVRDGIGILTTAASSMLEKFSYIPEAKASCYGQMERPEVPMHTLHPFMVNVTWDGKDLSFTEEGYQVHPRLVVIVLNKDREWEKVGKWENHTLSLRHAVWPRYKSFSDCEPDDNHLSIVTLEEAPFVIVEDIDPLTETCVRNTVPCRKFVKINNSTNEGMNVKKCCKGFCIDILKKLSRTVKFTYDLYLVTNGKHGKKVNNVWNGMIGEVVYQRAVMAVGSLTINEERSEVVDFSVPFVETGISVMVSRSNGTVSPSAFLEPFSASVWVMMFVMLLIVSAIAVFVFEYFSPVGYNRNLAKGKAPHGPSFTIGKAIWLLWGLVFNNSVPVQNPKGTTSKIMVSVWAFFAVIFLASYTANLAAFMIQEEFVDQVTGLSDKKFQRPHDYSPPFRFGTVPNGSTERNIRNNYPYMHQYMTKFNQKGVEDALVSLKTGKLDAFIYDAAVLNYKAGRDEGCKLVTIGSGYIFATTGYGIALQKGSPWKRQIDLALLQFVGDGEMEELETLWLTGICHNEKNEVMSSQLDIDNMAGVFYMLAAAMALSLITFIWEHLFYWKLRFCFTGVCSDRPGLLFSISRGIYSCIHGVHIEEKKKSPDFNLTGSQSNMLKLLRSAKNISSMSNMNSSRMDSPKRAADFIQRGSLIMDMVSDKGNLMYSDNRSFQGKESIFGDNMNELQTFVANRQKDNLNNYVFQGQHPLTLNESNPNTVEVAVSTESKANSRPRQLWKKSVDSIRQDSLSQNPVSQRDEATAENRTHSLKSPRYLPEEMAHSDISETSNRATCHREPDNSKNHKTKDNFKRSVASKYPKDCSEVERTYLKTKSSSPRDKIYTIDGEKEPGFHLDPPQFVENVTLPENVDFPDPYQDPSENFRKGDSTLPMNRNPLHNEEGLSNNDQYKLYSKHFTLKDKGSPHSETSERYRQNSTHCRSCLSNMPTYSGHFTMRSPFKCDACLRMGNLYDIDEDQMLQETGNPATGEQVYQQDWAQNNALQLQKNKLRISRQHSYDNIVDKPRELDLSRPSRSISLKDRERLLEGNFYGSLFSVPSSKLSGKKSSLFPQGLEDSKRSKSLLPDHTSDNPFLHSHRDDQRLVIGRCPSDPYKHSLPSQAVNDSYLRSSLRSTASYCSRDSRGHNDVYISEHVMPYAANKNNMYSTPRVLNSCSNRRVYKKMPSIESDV

According to US9567341B2, “Pyrrolopyrimidine derivatives as NR2B NMDA receptor antagonists” (Rugen Holdings (Cayman) Limited, priority 2014, dated 2017):

What follows are compounds tested against human NR1/NR2B (Homo sapiens (Human), UniProt Q05586+Q13224) (assay: NR2B antagonist activity (Fluo-4 calcium influx assay)).
Format: cell-based

Row | SMILES | IC50
1 | FC(F)Oc1ccc(C(F)(F)CN2CCC(Nc3ncnc4[nH]ccc34)CC2)nc1 [Compound C-12, N-(1-(2-(5-(difluoromethoxy)pyridin-2-yl)-2,2-difluoroethyl)piperidin-4-yl)-7H-pyrrolo[2,3-d]pyrimidin-4-amine] | 0.024 µM

The compounds below were run against human NR1/NR2A (Homo sapiens (Human), UniProt Q05586+Q12879) (assay: NR2A activity (Fluo-4 calcium influx assay)).
Format: cell-based

Row | SMILES | IC50
2 | FC(F)(F)c1ccc(C(F)(F)CN2CCC(Nc3ncnc4[nH]ccc34)CC2)nc1 [Compound C-5, N-(1-(2,2-difluoro-2-(5-(trifluoromethyl)pyridin-2-yl)ethyl)piperidin-4-yl)-7H-pyrrolo[2,3-d]pyrimidin-4-amine] | > 10 µM
3 | FC(F)c1ccc(C(F)(F)CN2CCC(Nc3ncnc4[nH]ccc34)CC2)nc1 [Compound C-6, N-(1-(2-(5-(difluoromethyl)pyridin-2-yl)-2,2-difluoroethyl)piperidin-4-yl)-7H-pyrrolo[2,3-d]pyrimidin-4-amine] | > 10 µM
4 | FC(F)(F)Oc1ccc(C(F)(F)CN2CCC(Nc3ncnc4[nH]ccc34)CC2)nc1 [Compound C-11, N-(1-(2,2-difluoro-2-(5-(trifluoromethoxy)pyridin-2-yl)ethyl)piperidin-4-yl)-7H-pyrrolo[2,3-d]pyrimidin-4-amine] | > 10 µM
5 | FC(F)Oc1ccc(C(F)(F)CN2CCC(Nc3ncnc4[nH]ccc34)CC2)nc1 [Compound C-12, N-(1-(2-(5-(difluoromethoxy)pyridin-2-yl)-2,2-difluoroethyl)piperidin-4-yl)-7H-pyrrolo[2,3-d]pyrimidin-4-amine] | > 10 µM
6 | Fc1cc(C(F)(F)F)cnc1C(F)(F)CN1CCC(Nc2ncnc3[nH]ccc23)CC1 [Compound C-18, N-(1-(2,2-difluoro-2-(3-fluoro-5-(trifluoromethyl)pyridin-2-yl)-ethyl)piperidin-4-yl)-7H-pyrrolo[2,3-d]pyrimidin-4-amine] | > 10 µM
